Values quoted from earlier work, collected in patent US5770363A, “Methods for diagnosing human male infertility” (priority 1995, dated 1998).

Test system: rats
Details: cited from earlier work
[1] = males treated with 1,3-dinitrobenzene

Which fertility (1.5 mg/kg/day for 10 weeks, rats) does the source give for `O=[N+]([O-])c1cccc([N+](=O)[O-])c1` here?
The fertility was “diminished”.

And the effect on spermatogenesis (1.5 mg/kg/day for 10 weeks, rats, normal sperm counts)?
The effect on spermatogenesis was “does not significantly inhibit spermatogenesis”.

What about the “implantation sites in female rats mated to treated males” value [1] of the same molecule?
The value was “no implantation sites were found”.

What about the “vaginal smears from female rats mated to treated males” value [1] of the same molecule?
The value was “sperm-positive”.
